Laboratory results as given in patent US8378093B2, “Explosives detection markers” (dated 2013).
Some compounds may have been tested in ways that are not shown here.

Key:
[1] = Color change and charge-transfer absorption on complexation of guests with tetra-TTF calix[4]pyrrole 2a; conditions: for absorption band centered at λ in the UV-vis spectrum / color change: 2 equiv of guest added to CH2Cl2 solution of 2a; for color of solution on mixing guest with 2a: in either CH2Cl2 or CHCl3
[2] = Binding constants between tetra-TTF calix[4]pyrrole 2a and nitrated aromatic guests by 1H NMR spectroscopic titration; conditions: guest binding to 2a, CDCl3, 298 K, 1:2 complexation, estimated errors <15%

| SMILES | absorption band centered at λ in the UV-vis spectrum [1] [nm] | color change [1] | color of solution on mixing guest with 2a [1] | color change in the solid state upon complexation ([1]; solid state, FIG. 4) | Ka^1 [2] [M⁻¹] | Ka^2 [2] [M⁻¹] |
| --- | --- | --- | --- | --- | --- | --- |
| O=[N+]([O-])c1cc([N+](=O)[O-])cc([N+](=O)[O-])c1 | 677 | yellow to green | green | yellow to black | 20 | 900 |
| Cc1c([N+](=O)[O-])cccc1[N+](=O)[O-] |  |  | green |  | 14 | 37 |
| Cc1ccc([N+](=O)[O-])cc1[N+](=O)[O-] |  |  | green |  | 25 | 49 |
| Cc1c([N+](=O)[O-])cc([N+](=O)[O-])cc1[N+](=O)[O-] | 625 | yellow to green | green |  | 25 | 132 |
